IC50 data for 16 compounds are collected here from patent US10730889B2, “Amido spirocyclic amide and sulfonamide derivatives” (Forma TM, LLC, priority 2012, dated 2020).

Sequences of proteins named here, by UniProt entry; tags and fusion partners are left off. A change or cut given only in a name is not applied to a line headed by its entry.
UniProt P43490: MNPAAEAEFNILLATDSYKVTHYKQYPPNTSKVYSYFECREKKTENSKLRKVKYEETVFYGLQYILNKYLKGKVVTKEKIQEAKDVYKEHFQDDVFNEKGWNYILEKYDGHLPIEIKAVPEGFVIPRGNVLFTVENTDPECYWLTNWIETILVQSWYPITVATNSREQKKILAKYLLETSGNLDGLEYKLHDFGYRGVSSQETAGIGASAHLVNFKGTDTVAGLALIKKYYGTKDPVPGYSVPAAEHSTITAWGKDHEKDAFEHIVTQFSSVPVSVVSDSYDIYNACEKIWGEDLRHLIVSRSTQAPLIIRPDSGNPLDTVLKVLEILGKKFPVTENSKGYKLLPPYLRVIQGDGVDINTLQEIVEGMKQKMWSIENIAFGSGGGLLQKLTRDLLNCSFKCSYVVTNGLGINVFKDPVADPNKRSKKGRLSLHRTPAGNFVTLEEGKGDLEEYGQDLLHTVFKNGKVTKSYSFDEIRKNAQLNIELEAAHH

For the first assay, the target named is NAMPT (Homo sapiens (Human), UniProt P43490). The assay can be described thus: Biochemical inhibition assay (NAMPT enzymatic reaction, NMN quantified by mass spectrometry).
Conditions: not given
In general, IC50 refers to the concentration at which inhibition is half-maximal. The low end stands for inhibition by little substance, the high end for a need for much substance. The compound `CC(C)(C)NC(=O)C(=O)N1CCC2(CC1)CC2CNC(=O)c1cc2ccncc2o1` (stereo not drawn) [Example 54, N-[[6-(2-(tert-butylamino)-2-oxo-acetyl]-6-azaspiro[2.5]octan-2-yl]methyl]furo[2,3-c]pyridine-2-carboxamide] had an IC50 of 2000 nM. The same measure, in the same setting: to `Cc1cc(C(=O)N2CCC3(CC2)CC3CNC(=O)c2cc3ccncc3o2)n(C)n1` (stereo not drawn) [Example 116, N-[[6-(2,5-dimethylpyrazole-3-carbonyl)-6-azaspiro[2.5]octan-2-yl]methyl]furo[2,3-c]pyridine-2-carboxamide] belongs 365 nM; to `CC(C)(O)COCC(=O)N1CCC2(CC1)CC2CNC(=O)c1cc2cnccc2[nH]1` (stereo not drawn) [Example 387, N-[[6-[2-(2-hydroxy-2-methyl-propoxy)acetyl]-6-azaspiro[2.5]octan-2-yl]methyl]-1H-pyrrolo[3,2-c]pyridine-2-carboxamide], 724 nM. Same read-out and setting: to `Cc1nc(C(F)(F)F)c(C(=O)N2CCC3(CC2)CC3CNC(=O)N2Cc3ccncc3C2)s1` (stereo not drawn) [Example 388] belongs 34 nM; to `CC1(C)CC1C(=O)N1CCC2(CC1)CC2CNC(=O)N1Cc2ccncc2C1` (stereo not drawn) [Example 389], 21.6 nM; to `CC(C)(C)OC(=O)N1CCC2(CC1)CC2CNC(=O)NCc1ccc2nccn2c1` (stereo not drawn) [Example 392, tert-butyl 2-[(imidazo[1,2-a]pyridin-6-ylmethylcarbamoylamino)methyl]-6-azaspiro[2.5]octane-6-carboxylate], 699 nM. The same measure, in the same setting: to `O=C(NCC1CC12CCN(C(=O)N1CCOCC1)CC2)N1Cc2ccncc2C1` (stereo not drawn) [Example 395] belongs 193 nM; to `CC(C)(O)CCC(=O)N1CCC2(CC1)CC2CNC(=O)c1cc2cnccc2[nH]1` (stereo not drawn) [Example 397, N-[[6-(4-hydroxy-4-methyl-pentanoyl)-6-azaspiro[2.5]octan-2-yl]methyl]-1H-pyrrolo[3,2-c]pyridine-2-carboxamide], 412 nM; to `O=C(NCC1CC12CCN(C(=O)c1cnccc1C(F)(F)F)CC2)N1Cc2ccncc2C1` (stereo not drawn) [Example 398], 12.5 nM. Turning to `CC1(O)CC(CC(=O)N2CCC3(CC2)CC3CNC(=O)c2cc3cnccc3[nH]2)C1` (stereo not drawn) [Example 400, N-[[6-[2-(3-hydroxy-3-methyl-cyclobutyl)acetyl]-6-azaspiro[2.5]octan-2-yl]methyl]-1H-pyrrolo[3,2-c]pyridine-2-carboxamide], inhibition was half-maximal at 136 nM (IC50).

In the case of `CC(C)(C)OC(=O)N1CCC2(CC1)CC2CNC(=O)c1ccc2nccn2n1` (stereo not drawn) [Example 402, tert-butyl 2-[(imidazo[1,2-b]pyridazine-6-carbonylamino)methyl]-6-azaspiro[2.5]octane-6-carboxylate], inhibition was half-maximal at 557 nM (IC50). Compound `O=C(Cc1cncnc1)N1CCC2(CC1)CC2CNC(=O)N1Cc2ccncc2C1` (stereo not drawn) [Example 407] came in with a 50% inhibitory concentration (IC50) of 13.1 nM.

Compound `O=C(NCC1CC12CCN(C(=O)c1ccccc1)CC2)c1cc2ccncc2o1` (stereo not drawn) [Example 411, N-((6-benzoyl-6-azaspiro[2.5]octan-2-yl)methyl]furo[2,3-c]pyridine-2-carboxamide] registered an IC50 of 121 nM. Still for that read-out and setting: next, `Cc1ncoc1C(=O)N1CCC2(CC1)CC2CNC(=O)N1Cc2ccncc2C1` (stereo not drawn) [Example 415]: 12.8 nM. Regarding `CC(C)OC(=O)N1CCC2(CC1)CC2CNC(=O)c1cc2ccncc2o1` (stereo not drawn) [Example 416, isopropyl 2-[(furo[2,3-c]pyridine-2-carbonylamino)methyl]-6-azaspiro[2.5]octane-6-carboxylate], the IC50 amounted to 82 nM. On the same count and under the same terms, next, `CC1(OC(=O)N2CCC3(CC2)CC3CNC(=O)c2cc3ccncc3o2)COC1` (stereo not drawn) [Example 417, (3-methyloxetan-3-yl) 2-[(furo[2,3-c]pyridine-2-carbonylamino)methyl]-6-azaspiro[2.5]octane-6-carboxylate]: 50.6 nM.

A further assay concerns A2780 cells. Kind of assay: In-vitro cell proliferation assay (SRB, 72 hours). The following applies: Homo sapiens, A2780, 72 h. The format is cell-based.
`CC(C)(C)NC(=O)C(=O)N1CCC2(CC1)CC2CNC(=O)c1cc2ccncc2o1` (stereo not drawn) [Example 54, N-[[6-(2-(tert-butylamino)-2-oxo-acetyl]-6-azaspiro[2.5]octan-2-yl]methyl]furo[2,3-c]pyridine-2-carboxamide]: half-maximal inhibition (IC50) was put at 2000 nM. Compound `Cc1cc(C(=O)N2CCC3(CC2)CC3CNC(=O)c2cc3ccncc3o2)n(C)n1` (stereo not drawn) [Example 116, N-[[6-(2,5-dimethylpyrazole-3-carbonyl)-6-azaspiro[2.5]octan-2-yl]methyl]furo[2,3-c]pyridine-2-carboxamide] came in with an IC50 of 370 nM.
